HCMV NEC inh – inhibitors of HCMV UL50-UL53 interaction, biochemical, HTRF; HCMV UL50-UL53 nuclear egress complex (human cytomegalovirus); normalized percent inhibition; inhibition, % (test concentration not listed); 190,000 compounds, 0.15% hits; in the data active = inhibition above about 27%, passing the limit was not always enough
GIV Gai3 FP – inhibitors of GIV GBA-motif binding to rat Galpha-i3; P08753; Galpha-i3/FITC-GIV peptide fluorescence polarization, 90 min; hits give low values; scaled: aluminum fluoride 0%, vehicle 100%; percent of control (FP), % (no concentration beside the values); hit rate 0.42% among 210,000; AID 1224905;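 active = replicate mean at 85% of control or lower, very high polarization wells dropped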;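 note: wells of about 15 µL received 100 nL stock; the first replicate is given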
Hits are given with their value; i = inactive; nt = no result given; ! = a repeat was not active. Compounds with a hit are over-represented: about 0.43% of the library has one in this group of screens.

SMILES	HCMV NEC inh	GIV Gai3 FP
CN(C)c1ccc(C=C2C(=O)OC(C)(C(C)(C)C)OC2=O)cc1 (configuration not stated)	i	17
CN(C)c1ccc(C=C2C(=O)OC(C)(C)OC2=O)cc1	i	i
Fc1cccc(CNCc2cn[nH]c2-c2ccc(Br)cc2)c1	nt	i
COc1ccc(-c2nc(Nc3ccc(OC)c(Cl)c3)c3ccccc3n2)cc1	i	i
COc1ccc(-c2nc(Nc3ccc4c(c3)OCCO4)c3ccccc3n2)cc1OC	34	i
CC(=O)Nc1nc2c(C)cccc2s1	i	nt
Cc1nc2c(c(C)c1CCC(=O)NCCC1=CCCCC1)c(=O)n(C)c(=O)n2C	i	i
COc1cc(-c2noc(-c3cc4cccc(C)c4oc3=O)n2)cc(OC)c1OC	nt	i
CCN(CC)c1ccc2cc(-c3nnc(-c4cccc(Cl)c4)o3)c(=O)oc2c1	i	7.6
CCN(CC)c1ccc2cc(-c3nc(-c4cccs4)no3)c(=O)oc2c1	nt	-21
CCN(CC)c1ccc2cc(-c3nc(-c4ccccc4)cs3)c(=O)oc2c1	nt	-32!
CCN(CC)c1ccc2cc(-c3csnn3)c(=O)oc2c1	i	i
CCN(CC)c1ccc2cc(-c3nc(-c4ccccc4F)no3)c(=O)oc2c1	nt	i
CCN(CC)c1ccc2cc(-c3nc(-c4cc(OC)c(OC)c(OC)c4)no3)c(=O)oc2c1	nt	-21
CCN(CC)c1ccc2cc(-c3csc(C)n3)c(=O)oc2c1	i	nt
O=C(CCCN1C(=O)c2ccccc2C1=O)Nc1cccc2nsnc12	i	i
N#Cc1cccc(C(=O)NC2CCCC2)c1	i	nt
COc1cccc(/C=C(/C(=O)O)c2ccccc2)c1	i	nt
CCn1c(Cn2nc(C(=O)O)c3ccccc3c2=O)nc2cc(S(=O)(=O)N(C)C)ccc21	i	nt
CC(=O)N1CC=C2C(C#N)=C(N)C(C#N)(C#N)[C@H](c3ccc(F)cc3F)[C@H]2C1	i	nt
CCCN1CC=C2C(C#N)=C(N)C(C#N)(C#N)C(c3ccc(F)cc3F)C2C1 (configuration not stated)	i	44
CCCc1nnc(NC(=O)c2ccccc2)s1	i	nt
Cc1n[nH]c(C)c1N1C(=O)c2cccc3c(N)ccc(c23)C1=O	nt	-42
CN(C)c1ccc2c3c(cccc13)C(=O)N(c1ccccc1)C2=O	i	i
Cc1n[nH]c(C)c1N1C(=O)c2cccc3c(Br)ccc(c23)C1=O	i	i
SMILES	HCMV NEC inh	GIV Gai3 FP
Nc1ccc2c3c(cccc13)C(=O)N(c1ccccc1)C2=O	i	-30
O=C1c2cccc3c(N4CCNCC4)ccc(c23)C(=O)N1c1ccc(Cl)cc1	i	-91
Cc1cccc(N2C(=O)c3cccc4c(N5CCNCC5)ccc(c34)C2=O)c1	i	i
COc1ccc(-c2oc(/N=C/c3ccc(N(C)C)cc3)c(C#N)c2-c2ccc(OC)cc2)cc1	nt	i
O/N=C(\Cc1ncc[nH]1)c1ccccc1	i	nt
CC(C)Oc1cccc(NC(=O)C2CCCN(S(=O)(=O)Cc3ccccc3)C2)c1 (configuration not stated)	nt	i
O=C(CSCc1ccccc1)NC1CC2CCC1C2 (configuration not stated)	i	i
COC1=CC(=O)c2ccccc2C1=O	101	i
CN(C1=CC(=O)c2ccccc2C1=O)c1ccccc1	i	nt
COCCNC(=O)Cn1c(C(=O)OC)ccc1-c1ccco1	i	i
CN(C)c1ccc(/C=C2/N=C(c3cccs3)OC2=O)cc1	i	nt
CN(C)c1ccc(/C=C2\N=C(c3ccc(Br)o3)OC2=O)cc1	i	-56
O=C(c1ccc2ncsc2c1)N1CCCCC1	i	nt
O=C(O)c1ccc2ncsc2c1	71	nt
COc1ccc(NS(=O)(=O)c2cc(-c3c(C)noc3NC(C)=O)ccc2C)c(OC)c1	nt	i
O=C(O)c1ccc2c3c1cccc3c(=O)n1c3ccccc3nc21	i	nt
O=c1c2ccc(NCCO)c3cccc(c32)c2nc3ccccc3n12	nt	-52
O=C(Cn1ncc2c1-c1ccccc1OC2)NCc1cccnc1	i	i
CC(C)C(=O)Nc1ccc(Cl)cc1C(=O)O	i	i
CC(C)C(=O)Nc1ccc(N(C)C)cc1C(=O)O	51	i
CN1/C(=C\C=C(C#N)C#N)C(C)(C)c2ccccc21	i	nt
CC[n+]1c(/C=C/C=C2/N(C)c3ccccc3C2(C)C)sc2ccccc21	i	-20
Cc1ccc2c(-c3cc4c(n(CC5CC5)c3=O)CCN(C(=O)c3ccc5c(c3)OCO5)C4)cccc2n1	i	nt
COC(=O)c1[nH]c2c(c1C)C(=O)C(C(=O)OC)C(C)C2 (configuration not stated)	i	i
CCc1ccccc1N(C)S(=O)(=O)c1c(C)noc1/C=C/N(C)C	i	i
SMILES	HCMV NEC inh	GIV Gai3 FP
O=C1CC(=O)Nc2ccccc2N1	i	i
O=C1Cc2ccccc2C(=O)N1	100	nt
CCN1/C(=C\C=C2\C(=O)N(C)C(=S)N2C)Sc2ccccc21	nt	i
CCN1/C(=C\C=C2/C(=O)NC(=O)N(C)C2=O)Sc2ccccc21	i	-61
COc1ccc(S(=O)(=O)N2CCC3(CC2)Nc2ccccc2-n2cccc23)cc1OC	i	i
COc1cc(CN2CCC3(CC2)Nc2ccccc2-n2cccc23)cc(OC)c1OC	60	i
CN(C)c1ccc(/C=C2/CCC/C(=C\c3ccc(N(C)C)cc3)C2=O)cc1	i	i
CC(C)/C=C1\CC/C(=C\c2ccc(N(C)C)cc2)C1=O	nt	-75
CC(C)c1nc(NCc2ccccc2)c(C#N)c2c1CCCC2	i	i
N#Cc1c(NCc2ccccc2)ncc2c1Nc1ccccc1C2	i	73
COc1cc(-c2nc(C=Nc3ccc(C)cc3Br)c(O)o2)cc(OC)c1OC	nt	i
Cc1ccc(N=Cc2nc(-c3cccc4ccccc34)oc2O)c(Br)c1	nt	25
C=CCSc1nc2sc3c(c2c(=O)n1-c1ccc(OC)cc1)CC(C)(C)OC3	i	i
N#Cc1c(NC(=O)CSc2nc3ccccc3o2)sc2c1CCCC2	i	i
CSc1nc(-c2cnccn2)nc(-c2ccco2)c1C#N	i	i
Cc1nc2c3c(cccc3n1)C(=O)c1ccccc1-2	i	i
Nc1cnc2cccc3c2c1-c1ccccc1C3=O	i	-74
CN(C)CCNc1ncnc2c1c(-c1ccccc1)cn2-c1ccccc1	i	i
COc1ccc(C2C=C(c3ccc(C)cc3)Nc3c(C(=O)Nc4ccccc4)cnn32)cc1 (configuration not stated)	nt	-67
COc1ccc(C2=CC(c3cccc(OC)c3)n3ncc(C(=O)Nc4ccc(C)cc4)c3N2)cc1 (configuration not stated)	i	i
CC(C)N1CCc2c(sc(NC(=O)C3CC3)c2-c2nc3ccccc3s2)C1	nt	-3.2
CN1CCc2c(sc(NC(=O)C3CC3)c2-c2nc3ccccc3s2)C1	nt	-3.2
CN1CCc2c(sc(NC(=O)CN3C(=O)c4ccccc4C3=O)c2-c2nc3ccccc3s2)C1	nt	i
CC(=O)N1CCc2c(sc(NC(=O)CSc3ccc(C)cc3)c2-c2nc3ccccc3s2)C1	nt	i
COC(=O)c1sccc1NC(=O)CC(=O)C(F)(F)F	i	i
CN1CCCc2cc(/C=C3\Cc4ccccc4C3=O)ccc21	nt	-75
COc1cc(/C=C2\Cc3ccccc3C2=O)ccc1O	i	i
Cc1cc(-c2ccc(C)c(S(=O)(=O)NCC3CCCO3)c2)on1 (configuration not stated)	i	i
CCOC(=O)/C(C#N)=C/c1ccccc1	i	i
CCOC(=O)/C(C#N)=C\c1ccc(N2CCOCC2)cc1	i	-45

High-throughput results from PubChem BioAssay.
